Tested on: TNF-α mRNA
Assay: TNF-α knockdown in human monocytes (branch DNA);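 note: LPS-activated human CD14+ monocytes, TNF-α mRNA read by branched DNA assay and normalized to cypB mRNA, knockdown compared with random-sequence Qneg siRNA as negative control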
[1] = siRNA 4 nM complexed with 1.6 uM PN73
[2] = siRNA 4 nM complexed with 1.6 uM PN509

Row | Sequence | KD (%) TNF-α [1] [%] | KD (%) TNF-α [2] [%]
1 | AAGUCAGAUCAUCUUCUCGAA [LC10] | 13.52 | 25.62
2 | AAGGGACCUCUCUCUAAUCAG [LC11] | 7.89 | 25.65

Reference: US20100113332A1, “METHOD OF TREATING AN INFLAMMATORY DISEASE BY DOUBLE STRANDED RIBONUCLEIC ACID” (NASTECH PHARMACEUTICAL COMPANY INC., priority 2004, published 2010)
